# In US7067665B2, “Oxybenzamide derivatives useful for inhibiting factor Xa or Vlla” (Sanofi-Aventis Deutschland GmbH, priority 2000, dated 2006):
# By UniProt entry, the sequences of proteins in these tests, tags left out. Residues count along the entry.
# UniProt P00742, 235-488 limits assumed: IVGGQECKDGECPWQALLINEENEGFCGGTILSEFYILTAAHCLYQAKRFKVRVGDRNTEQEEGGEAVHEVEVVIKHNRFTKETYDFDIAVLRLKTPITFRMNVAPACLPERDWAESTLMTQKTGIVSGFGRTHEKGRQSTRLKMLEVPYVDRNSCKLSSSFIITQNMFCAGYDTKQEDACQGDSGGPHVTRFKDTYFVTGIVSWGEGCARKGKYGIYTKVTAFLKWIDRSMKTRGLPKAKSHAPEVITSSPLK
# UniProt P00742, 41-179 partner limits assumed: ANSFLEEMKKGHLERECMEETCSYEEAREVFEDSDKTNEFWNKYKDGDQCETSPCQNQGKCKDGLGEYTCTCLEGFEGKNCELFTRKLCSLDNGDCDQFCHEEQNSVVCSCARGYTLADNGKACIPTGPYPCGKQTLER
# Molecular target: human factor Xa (Homo sapiens, UniProt P00742)
# Assay: Factor Xa chromogenic assay (substrate S-2765);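 note: purified enzyme, compound preincubated with the enzyme for 10 min before substrate addition starts the reaction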
# Format: biochemical
# Details: read-out: Ki(FXa); inhibition constant for inhibition of factor Xa; IC50 corrected for substrate competition; 25° C., enzyme 0.5 nM, substrate 140 μM; tested form: TFA
smiles,measurement,value
COc1ccc(C(=O)NCC2CCN(c3ccncc3)CC2)cc1OCc1cccc(CN)c1,Ki,38.8 µM
